# Values joined by “and” are separate entries in the source; they are usually repeats but may differ in a detail not shown here. Equal values may be shown once. This is a selection; strong and weak results do not stand in their true shares. Inconclusive results are not listed. Active and inactive are the calls of the source. Calls follow the shape of the dose curve; as a rule, active = well fitted inhibition curve with a large enough effect; inconclusive = small, poorly fitted or top-dose-only effect; inactive = no such curve, though single readings can be large or run the other way.
# By UniProt entry, the sequences of proteins in these tests, tags left out. Where a name states a change or a piece, a line headed by the entry shows the natural chain unless it says otherwise.
# UniProt Q9GZX7: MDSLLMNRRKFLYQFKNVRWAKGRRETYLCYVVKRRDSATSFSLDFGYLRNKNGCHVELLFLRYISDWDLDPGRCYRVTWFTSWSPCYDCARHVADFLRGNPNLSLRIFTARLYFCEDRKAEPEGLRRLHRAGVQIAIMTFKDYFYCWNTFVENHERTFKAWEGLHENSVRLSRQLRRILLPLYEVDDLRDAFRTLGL
# Target: Single-stranded DNA cytosine deaminase (Homo sapiens) (UniProt Q9GZX7)
# Assay: Primary qHTS assay for inhibitors of Activation Induced Cytidine Deaminase (AID): AID signal; also: nearly all actives have a fitted effect of over 25% in size
# Conditions: AID deamination FRET fluorescence, UDG-coupled, 4 h; at 115 µM (top of the series)
# Description: Assay Provider (PI) Patricia Gearhart Ph.D.
# National Institute on Aging
# National Institute of Health (NIH), Bethesda, MD
# Assay Provider (PI) Rahul Kohli Ph.D.
# Perelman School of Medicine
# University of Pennsylvania, Philadelphia, PA
# Activation-Induced Deaminase (AID) is a cytosine deaminase which converts cytosine into uracil within stretches of ssDNA. The presence of uracil in DNA initiates a cascade of mutagenic DNA repair to introduce point mutations and DNA double strand breaks. Specific targeting of AID to the immunoglobulin heavy chain loci (Igh) promotes mutagenesis in the antibody variable region for somatic hypermutation (SHM) or switch regions leading to class switch recombination (CSR). However, AID also plays a role in accumulating unnecessary mutations across the genome. Mis-targeting of AID results in the initiation of tumor development and leads to greater drug resistance among cancer cells when continually expressed. To identify an AID inhibitor, a small molecule library will be screened in collaboration with NCATS core facility at NIH. To confirm biological function, inhibitors will be examined in an in vitro murine B-cell activation assay and subsequent secondary validation screens. Top molecules will be further screened to identify inhibitory efficacy against a wild type primary splenocytes assay. Using these approaches, we hope to identify a small molecule with great efficacy and low toxicity for use as a molecular probe to further characterize AID's intricacies, or even as a therapeutic.
# A FRET based analysis of cytosine deamination, was developed to identify potential inhibitors of AID catalytic activity. This screen has two signal output, Read 1 evaluates the AID inhibition response. The second readout (Read 2) evaluates UDG response and is uses as a counterscreen to exclude false positive inhibitors. Inhibition in AID and inactivity in the UDG signal is the desired outcome for this assay.
# SEQUENCE No. (e.g., 1, 2, 3, etc.); […] (e.g., Cells, Incubation, Reagent, etc.); VALUE; DESCRIPTION
# 1a; Reagent; 3 uL; [4/3x] 1 uM AID/2.67 U/mL UDG
# 1b; Reagent; 3 uL; 2 U/mL UDG
# 1c; Reagent; 3 uL; 1 uM AID
# 2a; Compound; 46 nL; Follow-up plates (0.64 uM - 10 mM)
# 2b; Control; 46 nL; ATA ([…] - 10 mM)
# 3; Time; 10 min; incubation at room temperature
# 5; Time; 4 hr; incubation at room temperature
# 6; Reagent; 4 uL; [2x] 250 mM NaOH
# 7; Time; 15 sec; centrifuge at 1000 rpm
# 8; Time; 30 min; incubation at room temperature
# 9a; Detection; fluorescence (Read 1: AID); EnVision (PerkinElmer) plate reader, 540 excitation and 590 emission filters
# 9b; Detection; fluorescence (Read 2: UDG); EnVision (PerkinElmer) plate reader, 560 excitation and 665 emission filters
# NOTES (numbers refer to sequence above)
# 1a; Reagents were dispensed in a medium-binding black solid-bottom Greiner plates (789176F) using a BioRptr liquid dispenser. Dispense 3 uL of [4/3x] 1 uM AID (provided by Kohli lab) and [4/3x] 2 U/mL UDG (NEB M0280L) into columns 1, 2, 5 to 48.
# 1b; Dispense 3 uL of [4/3x] 2 U/mL UDG into column 3.
# 1c; Dispense 3 uL of [4/3x] 1 uM AID into column 4.
# 2a; Compound (7-points [uM] (0.64; 3.2; 16; 80; 400; 2,000; 10,000; 20,000) double pin-transferred (Dip Factor = 2) using the Kalypsys (Wako USA) pintool equipped with a 1536 pinhead for a final concentration range of 7.32 nM - 114 uM.
# 2b; 10 mM Aurintricarboxylic Acid (Sigma A1895) (ATA, 8-point, n = 2, 1:2.5 dilution in column 2) double pin-transferred (Dip Factor = 2) using the Kalypsys (Wako USA) pintool equipped with a 1536 pinhead for a [final] range of 186 nM - 114 uM.
# 3; Room temperature incubation.
# 4; Dispense 1 uL of substrate mixture from the Kohli lab [4x] […] DJC20 and [4x] 250 nM DJC23 into columns 1 to 48 .
# 5; Room temperature incubation.
# 6; Dispense 4 uL of substrate mixture [2x] 250 mM NaOH into columns 1 to 48.
# 7; Centrifugation step to remove bubbles.
# 8; Room temperature incubation
# 9a; Fluorescence signal (column label AID) was read using the EnVision plate reader. […]
# % is scaled to controls: 0 for no effect and ±100 for the full control effect.
row,Compound,"activity change, negative = inhibition"
1,CN(C(=O)Cc1ccccc1)[C@@H]1CC[C@]2(CCCO2)C[C@H]1N1CCCC1,inactive: 3.85%
2,Cc1ccc(C(=O)NC(Sc2ccccc2)C(Cl)(Cl)Cl)cc1 (configuration not stated),inactive: 2.56%
3,BrCC1CN=C(Nc2ccccc2)S1 (configuration not stated),inactive: -5.7%
4,Fc1ccc(NC2=NCC(CI)S2)c(F)c1 (configuration not stated),inactive: 7.8%
5,CN(C(=O)Cc1ccc(Cl)c(Cl)c1)[C@@H]1CC[C@]2(CCCO2)C[C@H]1N1CCCC1,inactive: -2.75%
6,NNc1ccc([N+](=O)[O-])cc1[N+](=O)[O-],inactive: 1.52%
7,Cc1ccc(C(=O)NC(Sc2ccc(Cl)cc2)C(Cl)(Cl)Cl)cc1 (configuration not stated),inactive: 1.39%
8,ClCCNC1C2CC3CC(C2)CC1C3 (configuration not stated),inactive: -8.75%
9,O=C(/C=C/c1ccccc1)NC(Sc1ccc(Cl)cc1)C(Cl)(Cl)Cl (configuration not stated),inactive: -6.87%
10,Cc1cccc(C(=O)NC(Sc2ccccc2)C(Cl)(Cl)Cl)c1 (configuration not stated),inactive: 0.931%
11,Clc1cccc(NC2=NCC(CBr)S2)c1 (configuration not stated),inactive: 12.8%
12,O=C(NC(Sc1ccccc1)C(Cl)(Cl)Cl)c1ccc(Cl)cc1 (configuration not stated),inactive: -5.47%
13,Fc1ccc(CNC2=NCC(CBr)S2)cc1 (configuration not stated),inactive: 0.512%
14,O=C(NC(Sc1ccc(Cl)cc1)C(Cl)(Cl)Cl)c1ccccc1 (configuration not stated),inactive: -0.0164%
15,CN(C(=O)Cc1ccc(Cl)c(Cl)c1)[C@H]1CCCC[C@@H]1N1CCCC1,inactive: -1.72% and inactive: -1.41%
16,BrCCNCCc1ccncc1,inactive: 13.1%
17,CN(C(=O)Cc1ccc(Cl)c(Cl)c1)[C@@H]1CCCC[C@@H]1N1CCCC1,inactive: -9.87%

# Source: PubChem BioAssay AID1347428 (National Center for Advancing Translational Sciences (NCATS), 2020)
